Results taken from PubChem BioAssay AID651999 (Sanford-Burnham Center for Chemical Genomics, 2013).
The list shows a part of the results, in another mix than the full data. Active and inactive are the calls of the source.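 The calls were made as follows: active = pattern-corrected inhibition above about 35%, with an unprinted fluorescence ratio check between 0.5 and 1.5 (limit read from the data, passing the limit was not always enough); inactive = the rest.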

The chains behind the UniProt entries cited, without tags or fusion partners.
UniProt Q92905, whole entry, looked up: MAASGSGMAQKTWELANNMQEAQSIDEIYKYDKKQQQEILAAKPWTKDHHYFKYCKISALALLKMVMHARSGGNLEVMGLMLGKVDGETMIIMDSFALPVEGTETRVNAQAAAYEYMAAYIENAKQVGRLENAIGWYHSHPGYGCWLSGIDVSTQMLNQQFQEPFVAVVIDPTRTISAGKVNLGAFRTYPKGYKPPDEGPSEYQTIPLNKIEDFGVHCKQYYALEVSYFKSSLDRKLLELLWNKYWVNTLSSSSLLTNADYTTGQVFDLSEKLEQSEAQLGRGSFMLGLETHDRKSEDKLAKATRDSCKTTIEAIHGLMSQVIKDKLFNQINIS

molecular target: COP9 signalosome complex subunit 5 (Homo sapiens) (UniProt Q92905); test: inhibitors of CSN-mediated cullin deneddylation, primary screen, biochemical, fluorescence polarization, uHTS (AID 651999); settings: Purified CSN, SCF-Nedd8-OG deneddylation, at 12.5 µM, active compounds read high;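 also: 0% = enzyme with substrate and 100% = substrate without enzyme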
Outline: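 Assay system: purified human Csn5 enzyme expressed in HEK293T cells; Input: 0.24 nM Csn5 enzyme, final concentration; Reagent: 10 nM SCFSkp2-Nedd8OG; Compound dosing: 12.5 µM single point; Times: reaction 90 min, room temperature; Technique: fluorescence polarization readout.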

SMILES	inhibition
Cc1ccc(NCCc2c([N+](=O)[O-])cc([N+](=O)[O-])cc2[N+](=O)[O-])cc1	inactive: 1%
CCCOP(=S)(Nc1nc(N)cc(=O)[nH]1)OCCC	inactive: -2.92%
COc1cc(C2NCCC3(OCCO3)C2(C)C)cc(OC)c1OC (configuration not stated)	inactive: 1.31%
CCOP(=O)(Nc1cccc2ccccc12)OCC	inactive: -3.55%
O=C(OC1CN2CCC1CC2)c1ccc(Cl)cc1 (configuration not stated)	inactive: -1.58%
O=[As](O)(O)c1cccnc1	inactive: -0.53%
COc1cc(C(=O)NCC2(N3CCOCC3)CCCCC2)cc(Cl)c1OC(C)C	inactive: -7.14%
CS(=O)(=O)c1ccc(Cl)c(NC(=O)COC(=O)C(O)(c2ccccc2)c2ccccc2)c1	inactive: -0.08%
Cc1cccc(OCC(=O)OC2CN3CCC2CC3)c1 (configuration not stated)	inactive: 1.26%
O=[As](O)(c1cccc(O)c1)c1cccc(O)c1	inactive: 1.49%
COc1ccccc1CNC(=O)COC(=O)C(O)(c1ccccc1)c1ccccc1	inactive: 0.29%
CC(C)/C=N\N=C(\N)N[N+](=O)[O-]	inactive: 6.16%
CN(C(=O)Cc1ccc(Cl)c(Cl)c1)[C@@H]1CCCC[C@H]1N1CCCC1	inactive: 2.99%
CC1(CBr)Cn2c(nc3ccccc3c2=O)S1 (configuration not stated)	inactive: 2.12%
O=P1(Nc2ccccn2)COc2ccccc2OC1	inactive: 2.53%
CCC1=CC2Cc3nc4ccc(Cl)cc4c(N)c3C(C1)C2 (configuration not stated)	inactive: 2.53%
CCOP(=O)(NC(=NC(C)c1ccccc1)NC(C)c1ccccc1)OCC (configuration not stated)	inactive: 4.72%
CCOP(=O)(Nc1ccc(C)cn1)OCC	inactive: 2.89%
CN(CCCl)Cc1cc(Cl)c(NC2=NCCN2)c(Cl)c1	inactive: 5.03%
O=P1(N(CCCl)CCCl)NCCC(C(F)(F)F)O1 (configuration not stated)	inactive: 0.53%
Clc1n[nH]nc1-c1nn[nH][15n]1	inactive: 8.07%
CC(C)(C)C(=O)NC(Sc1ncccn1)C(Cl)(Cl)Cl (configuration not stated)	inactive: 1.11%
Cc1ccc(S(=O)(=O)N(CCCN)CCCc2c(C)nc(N)[nH]c2=O)cc1	inactive: -0.27%
O=P1(Nc2ncccn2)COc2ccccc2OC1	inactive: -0.1%
Nc1cccc([As](=O)(O)c2ccccc2)c1	inactive: -4.23%
O=[As](O)(c1cccs1)c1cccs1	inactive: 5.25%

SMILES	inhibition
Cc1ccc(OCC(=O)OC2CN3CCC2CC3)cc1 (configuration not stated)	inactive: 6.48%
O=P1(Nc2ccc(Br)cn2)COc2ccccc2OC1	inactive: 0.62%
NS(=O)(=O)c1cccc(NC(=O)COC(=O)C(O)(c2ccccc2)c2ccccc2)c1	inactive: 2.78%
Cc1nn(-c2ccccc2)c2c1P(=O)(N1CCOCC1)N(C)C(c1ccccc1)=N2 (configuration not stated)	inactive: -1.92%
CC1CCC(C(C)C)C(OP(=O)(Nc2ccccn2)c2ccccc2)C1 (configuration not stated)	inactive: 5.88%
Cc1ccc(C(=O)OC2CN3CCC2CC3)cc1 (configuration not stated)	inactive: 2.9%
CN(C)C1(CNC(=O)c2ccc(S(C)(=O)=O)cc2)CCCCC1	inactive: -5.89%
O=C(/C=C/c1ccccc1)OC1CN2CCC1CC2 (configuration not stated)	inactive: 5.83%
CCCC1OP(=O)(Nc2ccccc2)OCC1CC (configuration not stated)	inactive: -5.03%
CCOC(=O)Nc1cccc([As](=O)(O)O)c1	inactive: 0.17%
O=P(Nc1ccccn1)(c1cccc2ccccc12)c1cccc2ccccc12	inactive: -16.9%
Cc1cc(SC(NC=O)C(Cl)(Cl)Cl)ncn1 (configuration not stated)	inactive: 2.09%
O=[N+]([O-])c1ccc(Nc2ccc(Oc3ccc([N+](=O)[O-])cc3[N+](=O)[O-])cc2)c([N+](=O)[O-])c1	inactive: -1.11%
CCOC(=O)Nc1ccc([As](=O)(O)O)c(O)c1	inactive: -0.94%
O=C(O)C(O)c1ccc(N(CCCl)CCCl)cc1 (configuration not stated)	inactive: 8.52%
CC1CCNP(=O)(N(CCCl)CCCl)O1 (configuration not stated)	inactive: -1.67%
COP(=O)(OC)N1CC1c1ccccc1 (configuration not stated)	inactive: 0.01%
CCCCOc1ccc(C(=O)NCC2(N3CCCCC3)CCCCC2)cc1OC	inactive: 1.88%
Cc1cc(SC(NC(=O)c2ccccc2)C(Cl)(Cl)Cl)nc(C(C)C)n1 (configuration not stated)	inactive: -7.52%
O=C(OC1CN2CCC1CC2)c1cccc([N+](=O)[O-])c1 (configuration not stated)	inactive: -1.42%
CSc1ccc(Nc2c([N+](=O)[O-])cc([N+](=O)[O-])cc2[N+](=O)[O-])cc1	inactive: -4.46%
CCOC(=O)c1ccc(NC(=O)C(C)(CCl)SC)cc1 (configuration not stated)	inactive: 3.48%
CCC(C)N(CC(C)C)C(=S)SC(NC(C)=O)C(Cl)(Cl)Cl (configuration not stated)	inactive: -1.3%
COP1(=S)c2c(C)nn(CCC#N)c2N=C(c2ccc(F)cc2)N1C (configuration not stated)	inactive: 3.09%
COC(=O)C1(C)COP(=O)(N2CCCC2)OC1 (configuration not stated)	inactive: -3.93%
O=C(O)C(=O)c1ccc(N(CCCl)CCCl)cc1	inactive: 0.22%

SMILES	inhibition
O=C(COc1ccccc1)OC1CN2CCC1CC2 (configuration not stated)	inactive: -0.29%
O=C(Nc1ccncc1[N+](=O)[O-])c1ccc([N+](=O)[O-])cc1[N+](=O)[O-]	inactive: 0.33%
O=[N+]([O-])c1cc(Oc2ccc([N+](=O)[O-])cc2C(F)(F)F)cc([N+](=O)[O-])c1	inactive: -1.91%
COc1ccc(N/C(=N/P(=O)(N2CCOCC2)N2CCOCC2)N2CCOCC2)cc1	inactive: -5.6%
Cc1c2c(nc3ccccc13)SC(C(Cl)Cl)C2 (configuration not stated)	inactive: 2.53%
O=C(OC1CN2CCC1CC2)C12CC3CC(CC(C3)C1)C2 (configuration not stated)	inactive: 4.52%
Cc1cc(=O)[nH]c(N[N+](=O)[O-])n1	inactive: 0.18%
O=P1(N(CCCl)CCCl)OCCCN1CCCl (configuration not stated)	inactive: -3.43%
O=P1(N(CCCl)CCCl)Nc2ccccc2N1	inactive: -0.91%
COc1ccc2nc(NP(=O)(c3ccccc3)c3ccccc3)sc2c1	inactive: 1.17%
COc1cc(I)ccc1[As](=O)(O)O	inactive: 7.3%
ClCCSc1nnc(-c2cccnc2)o1	inactive: -1.74%
COC(=O)C1(C)COP(=O)(N2CCCCCC2)OC1 (configuration not stated)	inactive: 1.84%
CC(C)c1ccc(OP(=O)(Nc2ccccn2)Oc2ccccc2F)cc1 (configuration not stated)	inactive: -1.95%
CC(C)NC(=O)NP(=O)(Oc1ccccc1)Oc1ccccc1	inactive: -9.4%
O=C(OC1CN2CCC1CC2)c1cccc2[nH]cnc12 (configuration not stated)	inactive: 3.06%
CCN(CC)C(=S)SC(NC=O)C(Cl)(Cl)Cl (configuration not stated)	inactive: 0.88%
O=[N+]([O-])c1cc([N+](=O)[O-])c(-c2ccn[nH]2)s1	inactive: 2.52%
O=[As](O)(c1ccc(O)cc1)c1ccccc1O	inactive: -0.52%
C[As](=O)(O)c1cccc(C(=O)O)c1	inactive: 4.54%
O=[N+]([O-])c1ccc(-c2cc([N+](=O)[O-])c(O)c([N+](=O)[O-])c2)cc1	inactive: 5.42%
COc1cc(C(=O)NCC2(N3CCOCC3)CCCCC2)ccc1OCC(C)C	inactive: -4.31%
[N-]=[N+]=NC1CCCCC1NC(=O)c1cc([N+](=O)[O-])cc([N+](=O)[O-])c1 (configuration not stated)	inactive: 2.07%
Cc1ccc(OP(=O)(Nc2ccc([N+](=O)[O-])cn2)Oc2ccc(C)cc2)cc1	inactive: -1.27%
Cc1ccc2nc3c(c(C)c2c1)CC(C(Cl)Cl)S3 (configuration not stated)	inactive: -2.51%
